Read-outs that look alike come from different tables or passages of the source.

Experimental findings from patent US20230407373A1 (priority 2020, published 2023) are described below.

This experiment relates to HCoV-OC43 gRNA and sgRNA. Type of experiment: binding. As to conditions: for target (unweighted spectral count): OC43 Probe II, infected cells.

For the substance PRRC2C, for the setting “36 hpi, type n_36_v, tested against no-probe control, FDR<10%”, the “target (unweighted spectral count, OC43 Probe II capture)” value was 6. Further, for the setting “type n_48_v, 48 hpi, OC43 Probe II capture on infected cells”, the “target (unweighted spectral count, OC43 Probe II)” value is listed as 5. Further, the “background (unweighted spectral count, no-probe control)” value (type n_48_v, 48 hpi, no-probe control on infected cells) is reported as 1.

For the substance RPA1, the “target (unweighted spectral count)” value is reported as 12 (12 hpi (type n_12_v), tested against no-probe control) and 5 (24 hpi (type n_24_v), tested against no-probe control).
